Test system: histamine-induced PPE
Assay: Histamine-induced plasma protein extravasation in the lung
Format: in vivo, guinea-pigs
Excerpt: The method of evaluating the effects of β2-adrenoreceptor agonists on vascular permeability and plasma protein extravasation was adapted from the technique of Erjefalt et al Acta.Physiol.Scand ., 128, 653-654 (1966). Briefly, guinea-pigs (male Dunkin Hartley, 300-400g) were given an intracardiac injection of iodinated human serum albumin (0.5µCi) in heparinised saline (10U.ml^-1).

For OCc1cc(C(O)CNCCCCCCOCCCCc2ccccc2)ccc1O (stereo not drawn) [salmeterol, 4-hydroxy-α^1-[[[6-(4-phenylbutoxy)hexyl]amino]methyl]-1,3-benzenedimethanol], the “concentration required to reduce histamine-induced PPE by 50% (ED50)” value (aerosol, nebuliser concentration) was 15 µg/mL and the “time after administration at which inhibition of histamine induced PPE is still evident” value (inhaled) was 6 to 8 h.

Source: EP1078629A2, “Use of Salmeterol and salts for the treatment of inflammation and allergy” (GLAXO GROUP LIMITED, priority 1989, dated 1991)
